{
  "source": "ChEMBL document CHEMBL3588789",
  "about": "“Synthesis and Pharmacokinetic Evaluation of Siderophore Biosynthesis Inhibitors for Mycobacterium tuberculosis” (J Med Chem, 2015)",
  "key": {"[1]": {"test": "AUC (0 to infinity) in Sprague-Dawley rat at 25 mg/kg, po by LC-MS/MS method", "type": "ADME, organism-based", "parameters": "dose 25 mg/kg, time infinity, route oral", "settings": "in vivo", "in_short": "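Female Sprague-Dawley rats (250–274 g), catheterised, 3 per compound, dosed by oral gavage at 25 mg/kg from a 10 mg/mL solution. Femoral-vein blood taken at 0, 15, 30, 45, 60, 120, 240 and 480 min into K2EDTA. Plasma protein-precipitated with an internal standard and quantified by LC–MS/MS against standards in rat plasma. Parameters by non-compartmental analysis.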"}, "Caco-2": {"system": "Caco-2", "test": "Efflux ratio in human Caco2 cells after 30 to 120 mins by HPLC method", "type": "ADME, cell-based", "in_short": "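Caco-2 cells (passage 50–70) grown 21 days on Transwell inserts, used only where TEER >300. Apical buffer pH 6.0, basolateral pH 7.4, 60 min preincubation. Compound dosed from a 20 mM DMSO stock with lucifer yellow on the donor side. Samples analysed by HPLC. Papp = (dQ/dt)/(A·C0) from cumulative sampling. Efflux ratio from B–A and A–B values.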"}},
  "data": [
    {"compound": "CCN(CC)CC.Nc1ncnc2c1ncn2[C@@H]1O[C@H](CNS(=O)(=O)NC(=O)c2ccccc2O)[C@@H](O)[C@H]1O", "values": [
      {"measurement": "AUC(0-inf)", "setting": "[1]", "value": 1660, "unit": "ng·h/mL"},
      {"measurement": "Ratio", "setting": "Caco-2", "value": 0.69}
    ]}
  ]
}
